From patent US20240425441A9, “MODULATORS OF LIPOXYGENASE AND CYCLOOXYGENASE ENZYME ACTIVITY” (Université de Moncton, priority 2016, published 2024)

Chains of the proteins cited; added tags and fusions are not shown.
UniProt P09917, whole entry: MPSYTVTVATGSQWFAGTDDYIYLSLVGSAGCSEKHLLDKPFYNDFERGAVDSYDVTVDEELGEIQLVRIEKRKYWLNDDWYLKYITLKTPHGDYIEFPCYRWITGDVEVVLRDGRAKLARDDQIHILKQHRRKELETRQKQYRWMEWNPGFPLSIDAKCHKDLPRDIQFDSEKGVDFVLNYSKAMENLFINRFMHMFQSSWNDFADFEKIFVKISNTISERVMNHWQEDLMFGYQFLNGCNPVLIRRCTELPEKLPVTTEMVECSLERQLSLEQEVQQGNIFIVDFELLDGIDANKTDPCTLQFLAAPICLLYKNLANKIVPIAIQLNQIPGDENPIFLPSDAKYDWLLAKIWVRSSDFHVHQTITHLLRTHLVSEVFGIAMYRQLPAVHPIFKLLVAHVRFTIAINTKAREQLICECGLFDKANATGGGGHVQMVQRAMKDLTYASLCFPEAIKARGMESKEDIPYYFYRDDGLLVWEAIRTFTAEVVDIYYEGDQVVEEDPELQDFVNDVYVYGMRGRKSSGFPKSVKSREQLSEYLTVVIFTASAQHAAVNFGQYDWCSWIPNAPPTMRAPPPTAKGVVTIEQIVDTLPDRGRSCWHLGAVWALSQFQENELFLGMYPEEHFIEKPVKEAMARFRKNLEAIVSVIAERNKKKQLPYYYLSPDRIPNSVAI

Target: 5-lipoxygenase (Homo sapiens (Human), UniProt P09917)
Assay: Stimulation of isolated PMN (neutrophils) for 5-LO products
Format: cell-based
Conditions: read-out: PMN dose-response, ranges indicate confidence interval

In the case of `COc1ccc(OC)c(C=CC(=O)OCC=C(C)C)c1`, the IC50 is reported as 580 to 800 nM.
